Reference: patent US20220265842A1, “ANTI-CD40 ANTIBODY DRUG CONJUGATES” (priority 2017, published 2022)

Test: Size exclusion chromatography (SEC): monomer / aggregation of ADC
Format: physicochemical
Conditions: purified DAR2 / DAR4 ADC fraction after AEC

B1: Example 4-conjugated (human) (n=2) (conjugate, listed as Homo sapiens)
heavy: MVRLPLQCVLWGCLLTAVHPEPPTACREKQYLINSQCCSLCQPGQKLVSDCTEFTETECLPCGESEFLDTWNRETHCHQHKYCDPNLGLRVQQKGTSETDTICTCEEGWHCTSEACESCVLHRSCSPGFGVKQIATGVSDTICEPCPVGFFSNVSSAFEKCHPWTSCETKDLVVQQAGTNKTDVVCGPQDRLRALVVIPIIFGILFAILLVLVFIKKVAKKPTNKAPHPKQEPQEINFPDDLPGSNTAAPVQETLHGCQPVTQEDGKESRISVQERQ
light: EPPTACREKQYLINSQCCSLCQPGQKLVSDCTEFTETECLPCGESEFLDTWNRETHCHQHKYCDPNLGLRVQQKGTSETDTICTCEEGWHCTSEACESCV
modifications: drug linker conjugated
  aggregation: 0%
